These are literature values, as cited in patent US20050170004A1, “Nanoparticles for drug delivery” (priority 2003, published 2005).

The test system of this data set is multiple sclerosis. The settings on record: literature; cited from earlier work.

As to Glatiramer acetate [GA], the “tolerability / side effect profile” value is “very well tolerated”.
